Data on three substances can be found in patent publication US8012929B2, “Peptides directed for diagnosis and treatment of amyloid-associated diseases” (Tel Aviv University Future Technology Development L.P., priority 2002, dated 2011).

Assay [1] deals with T1, hIAPP1-37 (Homo sapiens, UniProt P10997).
T1 construct: purchased CalBiochem (La Jolla Calif., USA)
T1 sequence (P10997 34-70 limits assumed): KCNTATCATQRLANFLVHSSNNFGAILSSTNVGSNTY
Put plainly: Thioflavin T fluorescence assay of hIAPP fibrillization (sodium acetate buffer). The format is biochemical. To be noted: 4 μM hIAPP1-37, 40 μM inhibitor, 10 mM sodium acetate pH 6.5. The protocol:
Thioflavin T fluorescence assay—hIAPP fibrillization was monitored by Thioflavin T dye binding assay. hIAPP1-37 stock solution was diluted to a final concentration of 4 μM in 10 mM sodium acetate buffer (pH 6.5) with or without inhibitors (40 μM), and a final concentration of HFIP of 1% (vol). Immediately after dilution, sample was centrifuged for 20 minutes in 20,000×g at 4° C. and the supernatant fraction was used for fluorescence measurements. In every measurement ThT was added to a 1 ml sample at a final concentration of 3 μM and measurements were effected by using Perkin-Elmer (excitation 450 nm, 2.5 nm slit; emission 480 nm 10 nm slit). Background was subtracted from all samples.

Assay [2] addresses T2, full-length IAPP polypeptide (Homo sapiens, UniProt P10997).
T2 construct: purchased CalBiochem (La Jolla Calif., USA)
T2 sequence (P10997 34-70 limits assumed): T1 sequence (P10997 34-70 limits assumed)
Put plainly: ThT fluorescence assay of IAPP fibril formation with inhibitory peptides (Tris buffer). In kind it is biochemical. To be noted: 4 μM IAPP, 40 μM inhibitory peptide, 142 hours of incubation. The protocol:
The ability of amyloidogenic peptides of IAPP, identified according to the teachings of the present invention to inhibit amyloid formation by the full-length polypeptide was tested by the addition of beta-breaker proline residues to the recognition sequence as set forth in the peptide sequence NFLVHPP (SEQ ID NO: 45). The degree of amyloid fibrils formation with and without the inhibitor was assessed using Thioflavin T (ThT) as molecular indicator. The degree of fluorescence of the ThT dye is directly correlated with the amount of amyloid fibrils in the solution [LeVine H 3rd. (1993) Protein Sci. 2:404-410. […] Fibril formation was determined by a ten fold dilution of the solutions into a solution that contained 3[…] thioflavin T (ThT) in 50 mM sodium phosphate pH 6.0 and determination of fluorescence at 480 nm with excitation at 450 nm using a LS50B spectroflurimeter (Perkin Elmar, Wellesley, Mass.). As a control 10 mM Tris buffer pH 7.2 were diluted into the ThT solution and fluorescence was determined as described.
The degree of amyloid fibril formation with and without the Aib inhibitor was assessed using thioflavin T (ThT) as molecular indicator. The degree of fluorescence of the ThT dye is directly correlated with the amount of amyloid fibrils in the solution [LeVine H 3rd. […]
The inhibitory peptides were assayed using standard ThT fluorescence assay (as described). […]

Consider D-Pro-D-Tyr (PY; D-amino acids) [EG17], for which the “inhibition of IAPP fibrillization (ThT fluorescence at plateau)” value in assay [1] is recorded as “effective inhibition”. On the same count and under the same terms, then D-Trp-D-Pro (WP; D-amino acids) [EG31], with “inhibition potential”. As for D-Tyr-D-Pro (YP; D-amino acids) [EG18], in assay [2], the “inhibition of IAPP aggregation (ThT endpoint)” value is “significant inhibitory effect on IAPP aggregation”. In addition, the “inhibition of IAPP fibrillization (ThT fluorescence at plateau)” value in assay [1] is recorded as “effective inhibition”.
